Screening data: PubChem BioAssay, National Center for Advancing Translational Sciences (NCATS)
Most compounds without a hit are left out; they make up all but 2.4% or so of the library.
ClpP mod: qHTS Assay for Activators of ClpP; Potency, µM (doses to about 57.5 µM), for the others: top-dose activity change, negative = active; AID 651965, 2013; actives 1.9% (n = 340,000); purified B. subtilis ClpP, FRET peptide cleavage, 20 min; ATP-dependent Clp protease proteolytic subunit (Bacillus subtilis (strain 168)), P80244; active = well fitted falling curve with a large enough effect; inconclusive = small, poorly fitted or top-dose-only effect; inactive = no such curve, though single readings can be large or run the other way; also: the source files actives as falling curves though it sought activators and does not explain the sign; nearly all actives have a fitted effect of over 65% in size
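Buffer: 100 mM Tris/HCl pH8, 100 mM KCl, 0.05% low protease BSA, 2.5% glycerol, 0.01% Tween-20. ClpP 10 microg/mL final; 20 min RT; delta FRET normalized to ADEP and DMSO controls.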
PTAP TSG101 blk: blocks PTAP/TSG101 interaction to inhibit HIV-1 budding. Q99816. Fluorescence polarization, FITC-PTAP peptide / Tsg101 binding. Potency, µM (titrated, usually from 115 µM), without a hit: at the top dose activity change, negative = inhibition, most hits filed as inhibitors. 340,000 tested, under 10 active. AID 493005; active = well fitted inhibition curve with a large enough effect in the main read-out, with a control signal flat, not every such curve was filed as active; inconclusive = small, poorly fitted or top-dose-only effect, or effect the other way, or a change in a side signal; inactive = no such curve, though single readings can be large or run the other way; also: % of control where 0% means no effect
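Tsg101 binding domain (10 uM final) was mixed with compound and a FITC-labeled PTAP peptide (50 nM final) in HEPES pH 7.5 buffer with NaCl, Tween 20, EDTA and TCEP; fluorescence polarization was read after 20 min at r.t.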
TDP1 block: inhibitors of human tyrosyl-DNA phosphodiesterase TDP1 | actives 0.28% (n = 350,000) | AID 485290 | Potency, µM (top dose mostly 130 µM), inactives show top-dose activity change, negative = inhibition, most hits filed as inhibitors | recombinant TDP1, AlphaScreen DNA substrate cleavage | Q9NUW8; active = well fitted curve in the direction sought with a large enough effect; inconclusive = small, poorly fitted or top-dose-only effect, or another doubt; inactive = no such curve, though single readings can be large; an effect the other way counts as inactive or inconclusive; also: % is scaled to controls: 0 for no effect and ±100 for the full control effect; nearly all actives have a fitted effect of over 40% in size
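Signal: AlphaScreen proximity between streptavidin donor and anti-FITC acceptor beads on intact substrate. Reaction: Tdp1 1 nM, substrate 15 nM final, 5 min RT after 15 min compound preincubation.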
ALOX12 inh: blocks human arachidonate 12S-lipoxygenase; purified 12hLO, xylenol orange hydroperoxide absorbance; Potency, µM (highest dose often 108 µM), without a hit: at the top dose activity change, negative = inhibition, hits mostly inhibitors; actives 1.1% (n = 580,000); active = well fitted curve in the direction sought with a large enough effect; inconclusive = small, poorly fitted or top-dose-only effect, or another doubt; inactive = no such curve, though single readings can be large; an effect the other way counts as inactive or inconclusive; also: % is scaled to controls: 0 for no effect and ±100 for the full control effect
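Purified human 12hLO at 150 nM in 25 mM Hepes, 0.01% Triton X-100, pH 7.0, preincubated 15 min at room temperature with compound. Reaction started with 40 uM arachidonic acid, 30 min at room temperature. Hydroperoxide measured by Fe-xylenol orange, 573/405 nm absorbance ratio.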
Rango dissoc inh: inhibition of RanGTP-driven Rango-importin beta dissociation | actives 0.071% (n = 340,000) | Potency, µM (highest dose often 46.1 µM), without a hit: top-dose activity change, negative = inhibition | AID 540253 | Biochemical FRET Rango-importin beta, RanGTP-induced dissociation; also: % of control where 0% means no effect; nearly all actives have a fitted effect of over 45% in size
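Compounds preincubate 5 min with complex of recombinant Rango and importin beta in PBS with 1 mM DTT. Ran (0.6 uM) loaded with 2 mM GTP plus 0.2 uM RCC1 starts dissociation; FRET is recorded 45 min later.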
Rango complex inh: inhibitors of Rango-importin beta complex formation; Q14974; Rango CFP/YFP FRET sensor + importin beta, 45 min; Potency, µM (titrated, usually from 92.2 µM), for the others: at the top dose inhibition of complex formation; actives 0.031% (n = 340,000); AID 540263;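 also: 0% = DMSO wells and 100% = buffer wells lacking importin beta; nearly all actives have a fitted effect of over 15% in size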
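Inhibition scored from the CFP 486 nm/YFP 530 nm FRET ratio 45 min after adding 0.125 microM importin beta to 50 nM Rango biosensor preincubated 5 min with compound (room temperature, PBS with DTT, Tween-20, BSA). No-importin wells as positive control.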
An asterisk follows results filed as active; u = inconclusive; x = no result given; [ ] = another dose, or the depositor's remark. Unless noted, calls follow the shape of the full dose curve. Potency is read from the fitted curve at half-maximal effect.

Amino acid sequences for entries named in this document (tags omitted).
ATP-dependent Clp protease proteolytic subunit (Bacillus subtilis (strain 168)), P80244, UniProt P80244, whole entry, looked up: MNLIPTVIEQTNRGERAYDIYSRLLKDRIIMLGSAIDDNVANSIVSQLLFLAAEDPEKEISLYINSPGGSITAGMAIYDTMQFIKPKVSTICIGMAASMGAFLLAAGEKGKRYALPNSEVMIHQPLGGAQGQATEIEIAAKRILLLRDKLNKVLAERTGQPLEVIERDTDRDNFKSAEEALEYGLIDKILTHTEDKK

entry	Compound	ClpP mod	PTAP TSG101 blk	TDP1 block
1	CN1CCN(C(=O)Nc2cccc3ccccc23)CC1	16µM*	x	0%
2	O=C(CSc1ccc2c(c1)OCCCO2)Nc1cccc2ccccc12	x	x	x
3	Cn1nccc1C(=O)NCCC1CCN(C(=O)Nc2ccc(F)cc2)CC1	x	x	x
4	O=C1CCN(C(=O)C2CCN(C(=O)c3ccc4ccccc4n3)CC2)CCCCCCN1	x	x	x
5	O=C(Nc1cc(F)cc(F)c1)c1ccc2c(c1)CCC2	x	x	x
6	CCn1ccc(C(=O)N2CCN(C(=O)N3CC4CC(C3)[C@H]3CCCC(=O)N3C4)CC2)n1 (stereo partly drawn)	x	x	x
7	CCc1ccc2c(c1)C(c1ccc([N+](=O)[O-])cc1)=NNC(c1ccc(F)cc1)=N2	1%	-8%	0%
8	Cc1nc(NC2CCCC2)sc1C(=O)NC1CC1	x	x	x
9	CC(=O)Nc1ccc(S(=O)(=O)N2CCN(c3nc(NC4CCCC4)c4ccccc4n3)CC2)cc1	28µM*	-6%	3%
10	CC(=O)Nc1ccc(S(=O)(=O)N2CCN(c3ncccn3)CC2)cc1	-12%	-2%	x
11	CCCNC(=O)c1ccc2c(=O)n3c(-c4ccc(C)cc4)csc3nc2c1	-20%	2%	4%
12	CC1(C)[C@H]2CC[C@@H](CNC(=O)c3ccccc3)[C@@H]1C2	x	x	x

entry	ALOX12 inh	Rango dissoc inh	Rango complex inh
1	11%	7%	4%
2	16µM*	x	x
3	38%	x	x
4	3%	x	x
5	-3%	x	x
6	6%	x	x
7	-20%	12µM*	u
8	2%	x	x
9	u	24%	7%
10	23%	7%	-1%
11	11µM*	16%	1%
12	25%[176 µM]	x	x

Compound profiles, from the list above:
O=C1CCN(C(=O)C2CCN(C(=O)c3ccc4ccccc4n3)CC2)CCCCCCN1 as listed: ClpP mod: x; PTAP TSG101 blk: x; TDP1 block: x; ALOX12 inh: 3%; Rango dissoc inh: x; Rango complex inh: x
O=C(CSc1ccc2c(c1)OCCCO2)Nc1cccc2ccccc12 as listed: ClpP mod: x; PTAP TSG101 blk: x; TDP1 block: x; ALOX12 inh: 16µM*; Rango dissoc inh: x; Rango complex inh: x

Next section.
entry	Compound	ClpP mod	PTAP TSG101 blk	TDP1 block
13	C[C@@H]1C(NC(=O)c2ccccc2)CC2CC1C2(C)C (stereo partly drawn)	x	4%	10µM*
14	Cc1ccc2c(c1)CCCN2C(=O)c1cc2cc(C)ccc2nc1C	x	x	x
15	COc1ccc2c(c1)CCCN2C(=O)c1cc2cc(Cl)ccc2nc1C	x	x	x
16	Cc1cc(C)c(S(=O)(=O)c2ccccc2)c(Cl)n1	14µM*	-2%	0%
17	CC1(C)C(=O)N(Cc2ccc(O)cc2)[C@H]2CN(CC3CCOC3)C[C@H]2[S+]1(=O)[O-] (stereo partly drawn)	x	x	x
18	CN(C)c1ccc(C=Cc2ccnc3c(O)cccc23)cc1	-1%	x	x
19	CN1CCN(C(=O)Cn2ccc3ccc(Br)cc32)CC1	x	x	x
20	Oc1ccc(-c2nc3ccccc3s2)c(O)c1	x	-1%	-1%
21	O=C(Nc1ccc(O)c(-c2nc3ccccc3s2)c1)c1cccs1	28µM*	-4%	6%
22	Nc1ccc(O)c(-c2nc3ccccc3s2)c1	-1%	-8%	u
23	O=C(Nc1cccc(-c2nc3ccccc3s2)c1)[C@@H]1CCCN1C(=O)c1cccs1	x	x	x
24	CCCc1c(C)nc(Nc2nc(C)c3cccc(OC)c3n2)[nH]c1=O	x	x	x

entry	ALOX12 inh	Rango dissoc inh	Rango complex inh
13	u	-2%	-2%
14	3%	x	x
15	45µM*	x	x
16	0%	-2%	0%
17	-16%[176 µM]	x	x
18	11µM*	x	x
19	2%	x	x
20	5%	4%	7%
21	9%	-8%	5%
22	56%	10µM*	u
23	40µM*	x	x
24	0%	x	x

Following part:
entry	Compound	ClpP mod	PTAP TSG101 blk	TDP1 block
25	O=C(CSCc1nc2sc3c(c2c(=O)[nH]1)CCC3)NCc1ccc(C(F)(F)F)cc1	x	x	x
26	CN(Cc1ccccc1)C(=O)C1CCCN(Cc2ccc(Cl)cc2)C1 (stereo not drawn)	11µM*	2%	-4%
27	CN(Cc1ccccc1)C(=O)C1CCN(Cc2cc3ccccc3n2Cc2ccccc2)CC1	-14%	x	5%
28	CN(C)CCNC(=O)C1CCN(Cc2cc3ccccc3n2Cc2ccccc2)CC1	-3%	x	1%
29	COC(=O)c1cnn2c(C)c(Cc3c(C)cc(C)cc3C)c(C)nc12	-18%	x	5%
30	C=CCc1c(C)nc2c(C(=O)O)cnn2c1C	32µM*	-10%	-6%
31	Cc1nc2c(C(=O)N3CCCCC3)cnn2c(C)c1Cc1ccccc1F	-7%	-6%	1%
32	Cc1cccc(Cc2c(C)nc3c(C(=O)N4CCN(Cc5ccc6c(c5)OCO6)CC4)cnn3c2C)c1	22µM*	-11%	7%
33	Cc1nc2c(C(=O)N3CCN(C)CC3)cnn2c(C)c1Cc1ccc(Cl)cc1	25µM*	-10%	7%
34	Cc1ccccc1Cc1c(C)nc2c(C(=O)N3CCN(Cc4ccc5c(c4)OCO5)CC3)cnn2c1C	32µM*	-1%	x
35	CC(C)=CCC/C(C)=C/C=N/NC(=O)Nc1ccccc1	x	x	x
36	Cc1ccc(C)c(NC(=O)Cn2c(=O)n(Cc3nc(C)no3)c(=O)c3cc4c(cc32)OCO4)c1	u	x	0%

entry	ALOX12 inh	Rango dissoc inh	Rango complex inh
25	-12%	x	x
26	u	10%	0%
27	45µM*	x	x
28	-30%	x	x
29	-6%	x	x
30	5%	-6%	0%
31	-2%	1%	-1%
32	-3%	-16%	0%
33	23%	-22%	4%
34	-21%	0%	0%
35	-5%	x	x
36	6%	x	x

Later entries.
entry	Compound	ClpP mod	PTAP TSG101 blk	TDP1 block
37	Cc1ccc(NC(=O)Cn2c(=O)n(Cc3nc(C)no3)c(=O)c3cc4c(cc32)OCO4)c(C)c1	22µM*	x	6%
38	CCc1nc2ccc(C(=O)NCC(F)(F)F)cc2nc1CC	x	x	x
39	O=[S+]([O-])(NCC1CN(Cc2ccc3[nH]ccc3c2)CC12CN(c1ccccc1)C2)c1ccccc1 (stereo not drawn)	x	x	x
40	C[S+](=O)([O-])c1cccc(CN2CC(COc3ccccc3)C3(C2)CN(c2ccccc2)C3)c1 (stereo not drawn)	x	x	x
41	Oc1ccc(CN2CC(CNc3ccccc3)C3(C2)CN(c2ccccc2)C3)cc1 (stereo not drawn)	x	x	x
42	CCOc1cccc(C2C(C(=O)c3ccc(C)o3)=C(O)C(=O)N2c2nccs2)c1 (stereo not drawn)	-2%	-25%	9%
43	Cc1ccc(C(=O)N2C[C@@H](Oc3ccccc3)C[C@H]2C(=O)N2CCOCC2)s1	x	x	x
44	CC(C)Oc1ccc(C(=O)OC(C)C(=O)NC2CCCCC2C)cc1 (stereo not drawn)	-1%	-5%	-2%
45	CCCCN(CCCC)CC(O)Cn1cc(/C=C/C(=O)c2ccccc2)c2ccccc21 (stereo not drawn)	-1%	x	-5%
46	Cc1ccccc1C(=O)OCC1CCC[N+]2(C)CCCCC12 (stereo not drawn)	x	x	x
47	CC(C)(C)C(=O)OCC1CCC[N+]2(C)CCCCC12 (stereo not drawn)	x	x	x
48	O=C(Nc1cccc(F)c1)c1n[nH]c(=O)c2ccccc12	x	x	x
49	OCCCCNc1cccc2ccccc12	16µM*	-7%	4%

entry	ALOX12 inh	Rango dissoc inh	Rango complex inh
37	2%	x	x
38	2%	x	x
39	35µM*	x	x
40	0%	x	x
41	63µM*	x	x
42	0.63µM*	u	u
43	50%	x	x
44	4%	-3%	26µM*
45	45µM*	x	x
46	28µM*	x	x
47	28µM*	x	x
48	2%	x	x
49	u	-11%	1%
